Test results as given in patent US20070196865A1 (priority 2003, published 2007).

Biological target: delta opioid receptor (human) (UniProt P41143)
Test: cell-based or functional assay

Substance: [D-Pen2,D-Pen5]-enkephalin (peptide)
- EC50 (Fgrains; multiplex pool of cells expressing β2AR, AT1AR, DOR): 11.2 nM
